Activity calls are given as the source filed them. No rule for the calls is given here.
Target: T-cell receptor (TCR)-CD3 interaction, human (TCR alpha chain TRAV4)
Assay: potency of TCR-CD3 interaction inhibitors, dose response, biochemical, fluorescence, TAMRA-labeled TCR probe (AID 686957)
Settings: TCR-CD3 binding

Oc1ccc(/C=N/NC(=S)Nc2cccnc2)c(O)c1O
IC50: inactive
